Measured affinities in a library of Ab-14 heavy chain variants

The measurements come from Li et al. 2023 (doi:10.1038/s41467-023-39022-2) through the FLAb antibody collection.

The target is the same throughout: PDVDLGDISGINAS, from the HR2 region of SARS-CoV-2 spike.

Parent: Ab-14, a human scFv built as VH, the linker GGGGSGGGGSGGGGS, VL. Only the CDRs of the heavy chain vary.
VH: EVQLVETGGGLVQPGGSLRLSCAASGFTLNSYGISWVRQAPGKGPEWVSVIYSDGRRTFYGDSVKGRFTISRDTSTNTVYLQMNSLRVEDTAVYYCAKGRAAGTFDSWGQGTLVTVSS
VL: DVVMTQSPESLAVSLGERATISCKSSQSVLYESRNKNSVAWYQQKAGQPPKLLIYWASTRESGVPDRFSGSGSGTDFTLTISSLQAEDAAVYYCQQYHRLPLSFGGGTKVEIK

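Designed CDR sequences, proposed from the first random library and measured here. Several design methods are mixed in this list. Affinity was read by AlphaSeq, a pooled yeast mating assay with surface-displayed partners. Pairs that bind mate more often; barcode pairs of the diploids are counted by sequencing. Each replicate has its own calibration line, from reference interactions of the BCL2 family. Mating was done six times.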

Positions count from residue 1 of the parent VH; T28S puts S in place of T. This list holds designs with at most six substitutions. The Kd shown is the geometric mean over detected replicates; a lower Kd is a better binder. "nd" means that the variant was in the library but no mating with the target was seen in any replicate; the authors take this as a sign of poor binding, and no number exists. Of ten entries with the parent sequence, four were seen in most replicates (averages 2.2 nM to 240 nM), three in one and three in none, so single entries are noisy.

With T28S S63D R100K the result was 4.3 nM (6 of 6 replicates).
With R56K R100Q the result was 99 nM (6 of 6 replicates).
With T28A S31D R100S the result was nd (0 of 6 replicates).
With G61S R100T A102G S107T the result was 41 nM (6 of 6 replicates).
With S31N the result was 30 nM (2 of 6 replicates).
With T28Q S31E S63Q R100Q S107E the result was 7.5 nM (6 of 6 replicates).
With S31Q S35Q F105G the result was nd (0 of 6 replicates).
With T28N S31E S53A G61A R100E A101T the result was 220 pM (6 of 6 replicates).
With S63Q A102R D106F the result was nd (0 of 6 replicates).
With T28D S31E R100K S107W the result was 14 nM (4 of 6 replicates).
With T28E S31T F59A A101Q the result was 3.3 nM (6 of 6 replicates).
With F27E S31E G61T A101F the result was 15 nM (3 of 6 replicates).
With I34V R56K F59D the result was nd (0 of 6 replicates).
With T28S R100Q A101T S107Q the result was 4.4 nM (6 of 6 replicates).
With R56Q G61N R100E A101Q the result was 190 nM (2 of 6 replicates).
With I34G S53A G61H A101Y S107D the result was nd (0 of 6 replicates).
With T28W S31E S53A R100T the result was 1.5 nM (6 of 6 replicates).
With G26K T28S S31N A101Q the result was 54 nM (3 of 6 replicates).
With T28G S31E D62W A101T the result was 18 nM (1 of 6 replicates).
With S31D G61D D62G A102T the result was nd (0 of 6 replicates).
With N30D F105A D106L S107Q the result was nd (0 of 6 replicates).
With T28V R100Q A101T the result was 94 nM (3 of 6 replicates).
With F59M G61D A101T the result was 3.2 nM (6 of 6 replicates).
With S31E G61T A101F S107T the result was 3.3 nM (6 of 6 replicates).
With T28L S31E A101T S107T the result was 1.2 nM (6 of 6 replicates).
With T28N S31E G61T A101H the result was 13 nM (6 of 6 replicates).
With T28S S31E G103V S107T the result was nd (0 of 6 replicates).
With F27Y T28N F59M the result was nd (0 of 6 replicates).
With T28D R100N T104W D106N S107N the result was nd (0 of 6 replicates).
With S31E G55N F59V G103V F105S S107Q the result was nd (0 of 6 replicates).
With N30E F59A G61T the result was 7.6 nM (3 of 6 replicates).
With N30E D106T S107L the result was nd (0 of 6 replicates).
With T28E R100N A101V S107T the result was 1.9 nM (6 of 6 replicates).
With N30D D106W S107D the result was nd (0 of 6 replicates).
With T28N N30E G61S A101L A102R the result was nd (0 of 6 replicates).
With G61L A101N F105P the result was nd (0 of 6 replicates).
With L29I N30M S31E R56L G61S R100K the result was 3.2 nM (6 of 6 replicates).
With G26K G61Q R100Q A101T the result was 270 nM (1 of 6 replicates).
With T28E S53A A101N S107V the result was 620 pM (6 of 6 replicates).
With S31Q R56Q G61H the result was 9.1 nM (6 of 6 replicates).
With T28D G61V R100H the result was 730 pM (6 of 6 replicates).
With T28S S31E S63K A101T the result was 610 pM (6 of 6 replicates).
With N30M S53A D106K the result was nd (0 of 6 replicates).
With G61S A101V A102M the result was 2.1 µM (1 of 6 replicates).
With T28S S31E S63P A101T S107D the result was 700 pM (6 of 6 replicates).
With G61D S63N R100Q A101T S107T the result was 6.2 nM (6 of 6 replicates).
With T28S S31E G61H S107N the result was 9.8 nM (6 of 6 replicates).
With S107V the result was 41 nM (4 of 6 replicates).
With T28N G61I A101T the result was 1.5 nM (4 of 6 replicates).

From the list, the first 8 with no signal in any replicate:

| changes | Kd | detected |
|---|---|---|
| T28A S31D R100S | nd | 0/6 |
| S31Q S35Q F105G | nd | 0/6 |
| S63Q A102R D106F | nd | 0/6 |
| I34V R56K F59D | nd | 0/6 |
| I34G S53A G61H A101Y S107D | nd | 0/6 |
| S31D G61D D62G A102T | nd | 0/6 |
| N30D F105A D106L S107Q | nd | 0/6 |
| T28S S31E G103V S107T | nd | 0/6 |

In the paper, a design with two or fewer of six values counts as a poor binder. Values of this round are not directly comparable with the first-round values of the same sequences. Three control strains display no target. For all heavy chain designs, 1% of the pairings with them gave a signal, with a median of 120 nM and one signal in twenty below 7.0 nM, so weak values seen in few replicates may be background.